{"sequences": {"note": "By UniProt entry, the sequences of proteins in these tests, tags left out. Where a name states a change or a piece, a line headed by the entry shows the natural chain unless it says otherwise.", "UniProt P12931": "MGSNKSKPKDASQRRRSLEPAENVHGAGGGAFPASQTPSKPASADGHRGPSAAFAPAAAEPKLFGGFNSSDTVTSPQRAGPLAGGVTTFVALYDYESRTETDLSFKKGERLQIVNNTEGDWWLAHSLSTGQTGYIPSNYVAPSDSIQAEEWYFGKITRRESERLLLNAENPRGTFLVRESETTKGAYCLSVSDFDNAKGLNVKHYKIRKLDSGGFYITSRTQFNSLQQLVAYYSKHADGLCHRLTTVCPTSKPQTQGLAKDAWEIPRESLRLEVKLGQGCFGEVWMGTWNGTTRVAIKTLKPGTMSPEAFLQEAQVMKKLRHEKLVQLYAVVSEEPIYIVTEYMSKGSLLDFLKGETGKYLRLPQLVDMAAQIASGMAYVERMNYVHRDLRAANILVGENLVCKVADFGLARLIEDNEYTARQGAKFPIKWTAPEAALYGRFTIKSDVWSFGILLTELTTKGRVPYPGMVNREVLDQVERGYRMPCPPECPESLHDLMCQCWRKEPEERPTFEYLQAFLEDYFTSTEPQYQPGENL"}, "source": "ChEMBL document CHEMBL1145907", "about": "“Requirements for specific binding of low affinity inhibitor fragments to the SH2 domain of (pp60)Src are identical to those for high affinity binding of full length inhibitors” (J Med Chem, 2003)", "biological_target": "Proto-oncogene tyrosine-protein kinase Src (Homo sapiens, UniProt P12931)", "test": "Inhibitory activity against SH2 domain of human p60 c-Src tyrosine kinase using surface plasmon resonance (SPR) assay."}
{"smiles": "O=C(O)C(c1ccccc1)S(=O)(=O)O", "note": "(stereo unspecified)", "values": [{"measurement": "IC50", "result": 3.2, "unit": "mM"}]}
